# Measured affinities in a library of Ab-14 heavy chain variants

All variants were tested on one target, the spike HR2 peptide PDVDLGDISGINAS (SARS-CoV-2).

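Phage display of a naive human antibody library on the peptide gave the parent. These sequences belong to a second round, designed from the earlier measurements on random variants of the parent. Group labels follow the data file (Ctrl: baseline library sampled from a position-specific scoring matrix, with some repeated check sequences; GPLM: also part of the Gaussian process libraries; Gen: genetic algorithm; a sequence that several methods proposed may carry one label only). AlphaSeq pools MATa yeast showing the antibodies with MATalpha yeast showing the peptide. Binding brings cells together so that they mate, and sequencing counts the barcode pairs among the diploids. Scores were corrected for input abundance and mapped to Kd with protein pairs of known affinity run in the same pool. Mating was done six times.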

Each scFv is VH, the linker GGGGSGGGGSGGGGS, VL, as in the parent Ab-14, and differs from it in the CDRs of the heavy chain only.
VH: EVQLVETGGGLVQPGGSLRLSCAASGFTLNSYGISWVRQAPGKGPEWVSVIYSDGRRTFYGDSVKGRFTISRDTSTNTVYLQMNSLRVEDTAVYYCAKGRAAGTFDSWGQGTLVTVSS
VL: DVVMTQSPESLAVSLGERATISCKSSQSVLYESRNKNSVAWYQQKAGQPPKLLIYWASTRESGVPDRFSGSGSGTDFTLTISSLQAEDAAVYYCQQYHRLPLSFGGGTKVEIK

Positions count from residue 1 of the parent VH; F59A puts A in place of F.
Numbers give log10(Kd / nM), so 0 is 1 nM and 3 is 1 µM. Smaller is tighter.
"n.d." means that the variant was in the library but no mating with the target was seen in that replicate; the authors take this as a sign of poor binding, and no number exists.
A sequence that the file lists under several names has all its replicates listed entry by entry, parted by semicolons.
The range of this assay differs from that of the first round, and the authors advise against merging the two.
Empty control strains, which show no peptide, gave a signal in 1% of pairings with all heavy chain designs; the median was 2.08 and 95% of these signals were weaker than 0.84. No background was subtracted. Also given: how often the same scFv was detected with the empty control strains, with their mean in brackets.
The authors averaged sequences with at least three values out of six and counted those with two or fewer as poor binders.

changes	group	log10 Kd (nM) by replicate	signal with controls
F59A/S63K/R100E	Ctrl	1.42 0.52 1.42 0.08 0.64 0.93	0 of 18
R56K/D106R	Ctrl	n.d. n.d. n.d. n.d. n.d. n.d.	0 of 18
S63A	Ctrl	1.98 2.16 n.d. 2.80 2.73 3.02	0 of 18
K65R/R100H/A101W/A102G	Ctrl	n.d. 1.32 n.d. n.d. 0.24 1.06	0 of 18
T28S/G103A	Ctrl	n.d. n.d. n.d. n.d. n.d. n.d.	0 of 18
T28N/G61N/A101N/T104I	Ctrl	n.d. n.d. n.d. n.d. n.d. n.d.	0 of 18
T28D/T58L/S63D/A101E	Ctrl	1.27 0.87 0.88 n.d. n.d. n.d.	0 of 18
T58E/F59A/A101Q/T104A	Ctrl	n.d. n.d. n.d. n.d. n.d. n.d.	0 of 18
G61I/R100T/A101I	Ctrl	0.44 0.77 0.62 n.d. 0.83 2.00	0 of 18
R56K/G61A	Ctrl+GPLM_Gen	1.42 0.87 1.10 1.33 0.83 1.59; 1.24 0.68 0.27 0.69 0.50 0.72	3 of 36 (2.21)
A101P/T104L/S107E	Ctrl	n.d. n.d. n.d. n.d. n.d. n.d.	0 of 18
A101E/D106S	Ctrl	1.87 1.45 1.72 1.35 2.12 2.23	0 of 18
G26H/N30E/S107N	Ctrl	1.41 1.09 n.d. n.d. 1.17 n.d.	0 of 18
L29I/S53A/S63D	Ctrl	-0.06 0.09 0.00 0.16 -0.09 0.13	1 of 18 (2.07)
F105S	Ctrl	n.d. n.d. n.d. n.d. n.d. n.d.	0 of 18
S53A/G61Q/A101E	Ctrl	-0.48 -0.42 -0.94 -1.02 -0.87 -0.72	0 of 18
S31D/V50F/G61Q/S107Q	Ctrl	n.d. n.d. n.d. 3.59 n.d. n.d.	0 of 18
A101E/S107D	Ctrl	n.d. n.d. n.d. n.d. n.d. n.d.	0 of 18
F27Y/S31Q/A101N/S107V	Ctrl	n.d. n.d. n.d. n.d. n.d. n.d.	0 of 18
T28A/S53A/T104P	Ctrl	1.95 2.49 1.55 1.73 2.33 1.64	0 of 18
N30R/S31D/G61S	Ctrl	0.49 0.57 0.36 0.53 0.59 1.18	0 of 18
D62I	Ctrl	n.d. n.d. n.d. n.d. n.d. n.d.	0 of 18
F27N/T28S/Y32F/Y60I/G61A/R100P/T104D	Ctrl	n.d. n.d. n.d. n.d. n.d. n.d.	0 of 18
G61A/G103W	Ctrl	n.d. 2.00 n.d. n.d. n.d. n.d.	0 of 18
N30L/R56S/D106E	Ctrl	n.d. n.d. n.d. n.d. n.d. n.d.	0 of 18
T28A/F59A/A101N/S107I	Ctrl	0.43 1.15 0.78 1.39 0.62 1.05	0 of 18
R57D/G61S/A101S/G103A/D106P	Ctrl	n.d. n.d. n.d. n.d. n.d. n.d.	0 of 18
G61H/R100E/A101L/G103A/F105S/S107P	Ctrl	n.d. 2.49 n.d. 1.50 1.65 1.73	0 of 18
F59Q/R100K/D106P	Ctrl	n.d. n.d. n.d. n.d. n.d. n.d.	0 of 18
F27H/N30G/S31E/F59Y/R100Y	Ctrl	n.d. n.d. n.d. n.d. n.d. n.d.	0 of 18
K65S/R100E/A102I/T104C	Ctrl	n.d. n.d. n.d. n.d. n.d. n.d.	1 of 18 (1.72)
T58V/G61A/A101W/G103A/F105G/D106W	Ctrl	n.d. n.d. n.d. n.d. n.d. n.d.	0 of 18
R56L/G103F	Ctrl	n.d. 1.57 n.d. n.d. n.d. n.d.	0 of 18
S31T/D106P	Ctrl	n.d. n.d. n.d. n.d. n.d. n.d.	0 of 18
S53F/G61A	Ctrl	1.54 n.d. 1.28 n.d. 1.29 n.d.	0 of 18
F27V/L29I/S53E/T58Q/R100Q/A102T	Ctrl	n.d. n.d. n.d. 3.04 n.d. n.d.	1 of 18 (2.34)

The opening 3 entries, copied out:

changes	group	log10 Kd (nM) by replicate	signal with controls
F59A/S63K/R100E	Ctrl	1.42 0.52 1.42 0.08 0.64 0.93	0 of 18
R56K/D106R	Ctrl	n.d. n.d. n.d. n.d. n.d. n.d.	0 of 18
S63A	Ctrl	1.98 2.16 n.d. 2.80 2.73 3.02	0 of 18

Reference: Li et al. 2023, doi:10.1038/s41467-023-39022-2. File: FLAb, binding data.